Literature values as cited in US11819781B2, “Device for solid phase extraction and method for use thereof” (Waters Technologies Corporation, priority 2014, dated 2023).

Conditions: analyte characteristics; octanol:water

For `CCOc1ccc(NC(C)=O)cc1` [Phenacetin], the “Log P” value is given as 1.6.
